Test results from US20090123488A1, “Compositions and methods for the treatment and prophylaxis of Alzheimer's disease” (priority 2006, published 2009).

Experiment: Aqueous solubility and appearance of immunogen solutions
Type: physicochemical
Conditions: for Comments (solubility): pH 5
Experimental: The immunogens of Example 1 (with either Pam3CSS- or Pam2CSS-lipopeptide caps) were poorly soluble in aqueous solvents. They were formulated for administration by dissolving them in dimethylsulphoxide (DMSO) and diluting with phosphate buffered saline to 5-10% DMSO. This yielded an opalescent somewhat turbid solution that was injected into animals.

## CCCCCCCCCCCCCCCC(=O)OCC(CSCC(N)C(=O)N[C@@H](CO)C(=O)N[C@@H](CCCCN)C(=O)N[C@@H](CCCCN)C(=O)N[C@@H](CCCCN)C(=O)N[C@@H](CCCCN)C(=O)N[C@@H](CO)C(=O)N[C@@H](CCC(N)=O)C(=O)N[C@@H](Cc1ccc(O)cc1)C(=O)N[C@H](C(=O)N[C@@H](CCCCN)C(=O)N[C@@H](C)C(=O)N[C@@H](CC(N)=O)C(=O)N[C@@H](CO)C(=O)N[C@@H](CCCCN)C(=O)N[C@@H](Cc1ccccc1)C(=O)N[C@H](C(=O)NCC(=O)N[C@H](C(=O)N[C@H](C(=O)N[C@@H](CCC(=O)O)C(=O)N[C@@H](CC(C)C)C(=O)N[C@@H](CC(=O)O)C(=O)N[C@@H](C)C(=O)N[C@@H](CCC(=O)O)C(=O)N[C@@H](Cc1ccccc1)C(=O)N[C@@H](CCCNC(=N)N)C(=O)N[C@@H](Cc1c[nH]cn1)C(=O)N[C@@H](CC(=O)O)C(=O)N[C@@H](CO)C(=O)NCC(=O)N[C@@H](Cc1ccc(O)cc1)C(=O)N[C@@H](CCC(=O)O)C(=O)N[C@H](C(=O)N[C@@H](Cc1c[nH]cn1)C(=O)N[C@@H](Cc1c[nH]cn1)C(=O)N[C@@H](CCC(N)=O)C(N)=O)C(C)C)[C@@H](C)O)[C@@H](C)CC)[C@@H](C)CC)[C@@H](C)CC)OC(=O)CCCCCCCCCCCCCCC (stereo partly drawn) [SEQ ID NO: 30, Pam2C-SKKKKSQYIKANSKFIGITELDAEFRHDSGYEVHHQ-amide]
  effect of addition of mannitol (isotonicity) on solubility in water for injection: did not impair solubility
  solubility in aqueous solvents: much improved solubility
Solution 2 mg/mL WFI
  Comments (solubility): Soluble with 37 °C
Solution 2 mg/mL-30 mg/mL mannitol
  Comments (solubility): Soluble with 37 °C
Solution 10 mg/mL WFI
  Comments (solubility): Soluble with 37 °C
Solution 10 mg/mL-30 mg/mL mannitol
  Comments (solubility): Soluble with 37 °C
Solution 30 mg/mL WFI
  Comments (solubility): Soluble with 37 °C
Solution 30 mg/mL-30 mg/mL mannitol
  Comments (solubility): Soluble with 37 °C
